Earlier results in patent US20060188566A1, “Nanoparticulate formulations of docetaxel and analogues thereof” (Elan Pharma International Limited, priority 2005, published 2006).

Conditions: in vivo; cited from earlier work

## albumin-bound paclitaxel
  solvent-mediated toxicities: not seen
